Like-named read-outs stand apart in the source and are kept apart here.
Target: Thrombin (Homo sapiens, UniProt P00734)
Test: Time-dependent potency determination against thrombin
Conditions: read-out: Thrombin IC50

“D-Phe-Pro-Arg-chloromethylketone [reference compound]” gave an IC50 (1 min preincubation) of 3550 nM, an IC50 (10 min preincubation) of 981 nM and an IC50 (60 min preincubation) of 187 nM.

Source: article PMC11017388 (ACS Medicinal Chemistry Letters, 2024)
